The results in this text go back to article PMC5433929, “High-resolution crystal structure of the human CB1 cannabinoid receptor” (Nature, 2016).

By UniProt entry, the sequences of proteins in these tests, tags left out. Where a name states a change or a piece, a line headed by the entry shows the natural chain unless it says otherwise.
UniProt P21554: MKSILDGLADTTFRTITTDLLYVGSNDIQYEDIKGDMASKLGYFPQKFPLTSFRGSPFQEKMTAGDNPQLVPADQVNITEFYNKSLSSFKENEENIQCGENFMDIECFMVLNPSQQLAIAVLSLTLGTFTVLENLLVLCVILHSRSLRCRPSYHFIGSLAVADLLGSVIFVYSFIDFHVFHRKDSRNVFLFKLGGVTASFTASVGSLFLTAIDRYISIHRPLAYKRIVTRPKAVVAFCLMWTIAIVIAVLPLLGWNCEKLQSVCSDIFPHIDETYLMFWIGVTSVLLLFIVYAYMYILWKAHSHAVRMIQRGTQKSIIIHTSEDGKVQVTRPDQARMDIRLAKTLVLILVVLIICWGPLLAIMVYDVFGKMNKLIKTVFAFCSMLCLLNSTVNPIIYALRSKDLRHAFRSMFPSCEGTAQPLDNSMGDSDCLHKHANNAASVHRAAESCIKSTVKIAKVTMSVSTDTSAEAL

For this experiment, the target named is CB1^T210A-PGS (Homo sapiens, UniProt P21554, DEL304-332/H302F/INS301[…]/T210A). To be noted: competition binding.

For `C[C@H](NC(=O)C(C)(C)Oc1ccc(C(F)(F)F)cn1)[C@@H](Cc1ccc(Cl)cc1)c1cccc(C#N)c1` [taranabant, N-[(1S,2S)-3-(4-chlorophenyl)-2-(3-cyanophenyl)-1-methylpropyl]-2-methyl-2-{[5-(trifluoromethyl)pyridin-2-yl]oxy}propanamide], the “binding of engineered construct compared with wild-type CB1” value was “nearly identically to wild-type CB1”.
